# Experimental logP (octanol/water) values from OPERA 2.9

From the experimental data distributed with OPERA 2.9.

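The numbers are reported measurements, compiled and curated for the OPERA QSAR suite. The files give a single number for a compound and property, which may rest on several reports. Conditions of the individual experiments are not part of the data. Where a salt, mixture or single isomer is drawn, the source does not say that exactly this form was tested. Unmarked limits or estimates from the upstream databases cannot be ruled out.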

The octanol-water partition coefficient is given as log10; larger values mean a more lipophilic compound. "via" names the databases from which the curators took the value.

- CC(=O)c1ccc2ccccc2c1 [2'-Acetonaphthone]: logP 2.678 (via eChemPortal)
- O=[N+]([O-])c1ccc(OP(=O)([O-])[O-])cc1.[Na+].[Na+] [4-Nitrophenyl phosphate disodium salt]: logP -2.16 (via eChemPortal)
- CCCCC[C@H](O)CC[C@@H]1[C@H]2Cc3cccc(OCC(=O)O)c3C[C@H]2C[C@H]1O [Treprostinil]: logP 4.1 (via PubChem)
- CC(=O)OCC(=O)[C@H]1[C@H](C)C[C@H]2[C@@H]3CC=C4C[C@@H](O)CC[C@]4(C)[C@H]3CC[C@@]21C [3-Hydroxy-16-methyl-20-oxopregn-5-en-21-yl acetate]: logP 4.14 (via eChemPortal)
- Cc1cc(C2(c3ccc(/N=N/c4c(S(=O)(=O)[O-])cc5ccc(O)cc5c4O)c(C)c3)CCCCC2)ccc1/N=N/c1c(S(=O)(=O)[O-])cc2ccc(O)cc2c1O.[Na+].[Na+]: logP -1.838 (via eChemPortal)
- CC[N+](CC)(CC)CCC(O)(c1ccccc1)C1CCCCC1 (centres undefined) [Tridihexethyl]: logP 1.17 (via PubChem)
- CC1(C)CC(N)CC(C)(CN)C1 (centres undefined) [Isophorone diamine]: logP 0.89 (via eChemPortal)
- CCOC(=O)c1ccc(N(C)C)cc1 [Parbenate]: logP 3.2 (via eChemPortal)
- CCN(Cc1ccccc1)c1ccccc1 [N-Ethyl-N-phenyl benzylamine]: logP 4.382 (via PubChem, eChemPortal)
- CC1=NC(=CN=O)SN1: logP 1.29 (via OCHEM)
- Nc1c(F)c(F)c(F)c(F)c1F [2,3,4,5,6-Pentafluoroaniline]: logP 1.86 (via OCHEM)
- O=C1C=CN([C@@H]2O[C@H](CO)[C@@H](O)[C@H]2O)C(=O)C1 [1-beta-D-Ribofuranosyl-2,4(1H,3H)-pyridinedione]: logP -0.86 (via OCHEM)
- O=C([O-])c1ccc(S(=O)(=O)[N-]Cl)cc1.[Na+].[Na+] [Monalazone disodium]: logP 1.45 (via eChemPortal)
- CO/N=C(\C(=O)N[C@@H]1C(=O)N2C(C(=O)OCOC(=O)C(C)(C)C)=C(COC(C)=O)CS[C@H]12)c1csc(N)n1: logP 2.62 (via OCHEM)
- O=C(Oc1ccc(OC(=O)c2ccc(O)cc2)cc1)c1ccc(O)cc1: logP 2.2 (via eChemPortal)
- C[N+](C)(C)c1cccc([O-])c1.I [3-(Trimethylazaniumyl)phenolate--hydrogen iodide (1/1)]: logP -2.68 (via OCHEM)
- CCCCNc1cc(C(=O)O)cc(S(N)(=O)=O)c1Oc1ccccc1 [Bumetanide]: logP 2.6 (via PubChem)
- O=c1n(CCO)c(=O)n(CCO)c(=O)n1CCO [Tris(2-hydroxyethyl) isocyanurate]: logP -1.63 (via eChemPortal)
- CC(O)=NC(=O)C(N)CCCNC(=N)N (centres undefined) [N-Arginylethanimidic acid]: logP -2.84 (via OCHEM)
- CC(C)OC(=O)c1cc(=O)[nH]c(=O)[nH]1: logP 0.81 (via OCHEM)
- CSc1nc2c(N)ncnc2n1[C@@H]1OC2OP(=O)(O)OCC2[C@H]1O (stereo partly drawn): logP -2.03 (via OCHEM)
- CC(=O)OCCOC(C)=O [1,2-Ethanediol diacetate]: logP 0.24 (via eChemPortal)
- Cc1cc(OC(=O)c2ccc(O)cc2)ccc1OC(=O)c1ccc(O)cc1 [2-Methyl-1,4-phenylene bis(4-hydroxybenzoate)]: logP 2.1 (via eChemPortal)
- CCC1(O)CC2CN(CCc3c([nH]c4ccccc34)C(C(=O)OC)(c3cc4c(cc3OC)N(C=O)C3C(O)(C(=O)OC)C(OC(C)=O)C5(CC)C=CCN6CCC43C65)C2)C1.O=S(=O)(O)O (centres undefined) [Vincristine sulfate]: logP 2.82 (via OCHEM)
- CC(C)OC(=O)CCC/C=C\C[C@@H]1[C@@H](/C=C/[C@@H](O)COc2cccc(C(F)(F)F)c2)[C@H](O)C[C@@H]1O [Travoprost]: logP 4.6 (via PubChem)
- C=C(C)C(=O)OCCOC(=O)CCC(=O)O [(2-((2-Methyl-1-oxoallyl)oxy)ethyl) hydrogen succinate]: logP 0.783 (via eChemPortal)
- Nc1ccc(Nc2ccc3nc4ccc(Nc5ccc6nc7ccc(Nc8ccc9nc%10ccc(Nc%11ccccc%11)cc%10[n+](-c%10ccccc%10)c9c8)cc7[n+](-c7ccccc7)c6c5)cc4[n+](-c4ccccc4)c3c2)cc1.[O]=[Cr](=[O])([O-])[OH].[O]=[Cr](=[O])([O-])[OH].[O]=[Cr](=[O])([O-])[OH] [C.I. Pigment Black 1]: logP -1 (via eChemPortal)
- C[C@H](CCC(=O)O)[C@H]1CC[C@H]2[C@@H]3C[C@H](O)[C@@H]4C[C@H](O)CC[C@]4(C)[C@H]3CC[C@]12C [Hyodeoxycholic acid]: logP 3.08 (via OCHEM, PubChem)
- CCCCCCCCCCCCN(CCC(=O)[O-])CCC(=O)O.[Na+] [beta-Alanine, N-(2-carboxyethyl)-N-dodecyl-, monosodium salt]: logP -2.12 (via eChemPortal)
- CNS(=O)(=O)c1ccc([O-])c(/N=N/c2c([O-])ccc3cccc(NC(C)=O)c23)c1.CNS(=O)(=O)c1ccc([O-])c(/N=N/c2c([O-])ccc3cccc(NC(C)=O)c23)c1.[Cr+3].[Na+]: logP -0.39 (via eChemPortal)
- CCN(CC)c1ccc2cc3c(oc2c1)c(C#N)c(=O)n1c2ccccc2nc31: logP 3.6 (via eChemPortal)
- O=C(CO)[C@@H](O[C@H]1O[C@H](CO)[C@@H](O)[C@H](O)[C@H]1O)[C@H](O)[C@H](O)CO [D-Fructose, 3-O-.alpha.-D-glucopyranosyl-]: logP -4.8 (via PubChem)
- C=CC1=C(C(=O)O)N2C(=O)[C@@H](NC(=O)/C(=N\OCC(=O)O)c3csc(N)n3)[C@H]2SC1 [Cefixime]: logP -0.4 (via PubChem)
- CC(CCOS(=O)(=O)c1ccccc1)[N-]c1ccc([N-]C(C)CCOS(=O)(=O)c2ccccc2)c2c1C(=O)c1ccccc1C2=O.[Na+].[Na+] (centres undefined): logP 1 (via eChemPortal)
- C[N+](C)(C)C1CCCCC1.[OH-] [N,N,N-Trimethylcyclohexanaminium hydroxide (1:1)]: logP -2.19 (via eChemPortal)
- C[C@@H]1O[C@@H]1P(=O)(O)O [Fosfomycin]: logP -1.6 (via PubChem)
- Cc1cccc(Oc2ccccc2)c1 [1-Methyl-3-phenoxybenzene]: logP 4.46 (via OCHEM)
- CCN(CC)CCc1nc(-c2ccccc2)no1 [Oxolamine]: logP 2.393 (via eChemPortal)
- CCNC(=O)NN [N-Ethylhydrazinecarboxamide]: logP -1.62 (via OCHEM)
- COc1ccc(CCC(=O)O)cc1 [3-(4-Methoxyphenyl)propanoic acid]: logP 1.9 (via OCHEM)
- CCOC(=O)c1cc(NC(=O)c2cccs2)ccc1OCC(O)CNC(C)(C)C (centres undefined) [Tienoxolol]: logP 2.79 (via OCHEM)
- NCCNCCNCCN [N1,N2-Bis(2-aminoethyl)-1,2-ethanediamine]: logP -1.955 (via OCHEM, PubChem)
- C[C@H](CCC(=O)O)[C@H]1CC[C@H]2[C@@H]3C(=O)C[C@@H]4C[C@H](O)CC[C@]4(C)[C@H]3CC[C@]12C [3alpha-Hydroxy-7-oxo-5beta-cholanoic acid]: logP 3.48 (via eChemPortal)
- COc1cccc([C@H](C)N)c1 [1-(3-Methoxyphenyl)ethan-1-amine]: logP 1.5 (via eChemPortal)
- NCc1ccccc1Cl [2-Chlorobenzylamine]: logP 1.6 (via eChemPortal)

The last 3 entries again:

* C[C@H](CCC(=O)O)[C@H]1CC[C@H]2[C@@H]3C(=O)C[C@@H]4C[C@H](O)CC[C@]4(C)[C@H]3CC[C@]12C [3alpha-Hydroxy-7-oxo-5beta-cholanoic acid]: logP 3.48 (via eChemPortal)
* COc1cccc([C@H](C)N)c1 [1-(3-Methoxyphenyl)ethan-1-amine]: logP 1.5 (via eChemPortal)
* NCc1ccccc1Cl [2-Chlorobenzylamine]: logP 1.6 (via eChemPortal)